The test system of series [1] is THP-1-derived M2 macrophages. As to the kind of experiment: Affinity test of FITC-conjugated peptides by flow cytometry. Type of series: cell-based, human. To be noted: FITC-conjugated peptide, 50 nM, 1 h, FACS. As to the method:
THP-1 monocytes were differentiated into macrophages by 24 h incubation with 100 nM phorbol 12-myristate 13-acetate (PMA, Sigma) followed by 24 h incubation in RPMI medium (Invitrogen). Macrophages were polarized in M1 macrophages (M1) by incubation with 20 ng/ml of IFN-γ (Prospec) and 100 ng/ml of LPS (Sigma). Macrophage M2 polarization(M2) was obtained by incubation with 20 ng/ml of interleukin (IL) 4 (Prospec) and 20 ng/ml of interleukin 13 (Prospec). M2-like tumor-associated macrophages were polarized by incubation with 20% conditioned medium of PC3 cells.
THP-1 cells were differentiated into macrophages by a 24 h incubation with 100 nM PMA and polarized in M2 macrophages by incubation with 20 ng/ml of IL-4 and 20 ng/ml of IL-13 for 72 h. Polarized cells were treated with 50 nM TAMpep and fragments of TAMpep or Mpep and alanine library of Mpep conjugated with FITC for 1 h. To test change of macrophage population in melanoma tissue, the single cells were isolated from tumor tissue through a 40 μm nylon mesh strainer after dissociation by DNase I (1 U/mL) and collagenase D (1 mg/ml). Cells were detected on BD FACSCalibur and BD FACSCantoII instruments and analyzed by FlowJo software.
For orientation: A flow cytometer gives signals particle by particle.

The nature of series [2]: Cytotoxicity assay (CCK-8 cell viability). In kind it is cell-based. To be noted: human, THP-1-derived M2 macrophages. As to the method: THP-1 cells were differentiated into macrophages by 24 h incubation with 100 nM PMA and polarized in M2 macrophages by incubation with 20 ng/ml of IL-4 and 20 ng/ml of IL-13 for 72 h. Polarized cells were treated with increasing concentrations of TAMpep and fragments of TAMpep (0.05-20 μM) for 24 h. Cell viability was analyzed using the CCK-8 assay: CCK-8 reagent (Enzo Life Sciences) was added to each well; incubation was continued for 2 hours, and absorbance was measured at 450 nm with a microplate reader (Molecular Devices).

Another series concerns mouse RBC. As to the kind of experiment: Hemolytic activity assay. In kind it is cell-based. To be noted: 0.1-50 μM, 37° C., 1 h, read-out: hemolysis IC50. As to the method:
Mouse blood samples were collected in tubes containing heparin as an anticoagulant and stored at 4 ° C. before use. Whole blood sample were centrifuged at 1,500×g for 5 min and the resulting plasma fraction was removed from the samples. The pellets were washed with an equal volume of saline, mixing by inversion. The centrifuging and washing steps were repeated 5 times. Red blood cells were counted by a hemocytometer and adjusted to […]. Red blood cells were then incubated at 37° C. for 1 h in 1% Triton X-100 (positive control), in PBS (blank), or with increasing concentrations of TAMpep and Mpep (0.1-50 μM) were evaluated. The samples were then centrifuged at 10,000 g for 5 min, the supernatant was separated from the pellet, and its absorbance measured at 570 nm. The relative optical density compared to that of the suspension treated with 1% Triton X-100 was defined as the percentage of hemolysis.

SMILES strings stand for the structures. pIC50: −log10 of the molar value.

From patent US20220354957A1, “PEPTIDES TARGETING MACROPHAGES, AND CONJUGATES, COMPOSITIONS, AND USES THEREOF” (Twinpig Biolab, Inc., priority 2021, published 2022) come the findings set out here.

In general, IC50 refers to the midpoint of a concentration-inhibition curve. Lower therefore signals greater potency in that assay. Usually pIC50 stands for the negative decadic logarithm of the IC50, by convention in mol/L.

With `CC[C@H](C)[C@H](NC(=O)CN)C(=O)NCC(=O)N[C@@H](C)C(=O)N[C@H](C(=O)N[C@@H](CC(C)C)C(=O)N[C@@H](CCCCN)C(=O)N[C@H](C(=O)N[C@@H](CC(C)C)C(=O)N[C@H](C(=O)N[C@H](C(=O)NCC(=O)N[C@@H](CC(C)C)C(=O)N1CCC[C@H]1C(=O)N[C@@H](C)C(=O)N[C@@H](CC(C)C)C(=O)N[C@H](C(=O)N[C@@H](CO)C(=O)N[C@@H](Cc1c[nH]c2ccccc12)C(=O)N[C@H](C(=O)N[C@@H](CCCCN)C(=O)N[C@@H](CCCNC(=N)N)C(=O)N[C@@H](CCCCN)C(=O)N[C@@H](CCCNC(=N)N)C(=O)N[C@@H](CCC(N)=O)C(=O)N[C@@H](CCC(N)=O)C(N)=O)[C@@H](C)CC)[C@@H](C)CC)[C@@H](C)O)[C@@H](C)O)C(C)C)C(C)C` [TAMpep, reference compound], the “affinity in M2 macrophages” value in series [1] is given as “over 90%”. In series [2], this molecule came in with an IC50 at 24 h of 0.815 µM. In the series on mouse RBC, the pIC50 is 5.18.
